# Target: mouse A2AAR (Mus musculus, UniProt Q60613)
# By UniProt entry, the sequences of proteins in these tests, tags left out.
# UniProt Q60613, whole entry: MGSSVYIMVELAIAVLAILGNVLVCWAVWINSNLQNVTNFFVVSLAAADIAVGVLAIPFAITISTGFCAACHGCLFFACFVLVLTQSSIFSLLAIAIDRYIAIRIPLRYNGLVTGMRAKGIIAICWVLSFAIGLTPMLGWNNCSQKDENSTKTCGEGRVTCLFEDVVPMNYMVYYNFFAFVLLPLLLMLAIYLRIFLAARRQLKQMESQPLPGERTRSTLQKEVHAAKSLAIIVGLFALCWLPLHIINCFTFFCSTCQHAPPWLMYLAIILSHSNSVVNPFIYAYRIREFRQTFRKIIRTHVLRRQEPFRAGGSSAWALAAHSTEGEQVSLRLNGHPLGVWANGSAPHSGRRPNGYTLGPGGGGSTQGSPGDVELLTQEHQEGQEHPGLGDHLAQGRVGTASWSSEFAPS
# Assay: Radioligand binding, recombinant mouse A2AAR in HEK-293 membranes
# Details: read-out: Ki, mouse A2AAR; current results, ±SEM
smiles,measurement,value
"O[C@@H]1[C@H](O)[C@@H](CCl)O[C@H]1n1cnc2c(NC3CC4CCC3C4)ncnc21 (mixture of isomers) [Cl-ENBA, (±)-5'-chloro-5'-deoxy-N^6-endo-norbornyladenosine]",Ki,3.98 ± 0.358 µM

# Reference: publication PMC5183552 (Neuropharmacology, 2016)
